{
  "source": "patent US10980860B2",
  "about": "“Diagnosis, prevention and treatment of diseases of the joint” (Ascendis Pharma A/S, priority 2012, dated 2021)",
  "molecules": {"B1": {"name": "16a: IL-1ra linker hydrogel prodrug from maleimide functionalized hydrogel beads 14a and IL-1ra-linker conjugate 15c; 0.67 mg IL1RA/mg hydrogel (conjugate, UniProt P18510 26-177, looked up)", "Interleukin-1 receptor …": "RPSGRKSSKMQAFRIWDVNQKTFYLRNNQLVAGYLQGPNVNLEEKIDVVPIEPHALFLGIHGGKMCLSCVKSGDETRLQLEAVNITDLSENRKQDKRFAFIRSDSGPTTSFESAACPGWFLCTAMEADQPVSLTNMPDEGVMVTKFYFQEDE", "modifications": "linker-hydrogel prodrug", "notes": "IL-1ra linker hydrogel prodrug from maleimide functionalized hydrogel beads 14a and IL-1ra-linker conjugate 15c; 0.67 mg IL1RA/mg hydrogel"}},
  "system": "ACLT-induced arthritic rabbits",
  "assay": "Chondroprotective effect of intra-articular IL-1ra linker hydrogel prodrug in ACLT rabbits",
  "assay_type": "in vivo, female Hyla NG rabbits",
  "conditions": "eight weeks after intraarticular injection",
  "experimental": "Arthritis was induced in 24 weeks old female Hyla NG rabbits (average weight 4.4 kg) by anterior cruciate ligament transection (ACLT) of the right knee. Four days after surgery animals were injected intraarticularly with IL-1ra linker hydrogel prodrug 16a (7.5 mg IL-1ra content) in 350 μl citrate buffer pH 6.5 or with 350 μl citrate buffer alone. Eight weeks after injection, animals were sacrificed. The severity of macroscopic changes on cartilage of the right knee were graded by India Ink uptake. […] Osteophyte formation on the medial condyle was less intense in the IL-1ra group compared to control group.",
  "data": [
    {"molecule": "B1", "values": [
      {"measurement": "Signs of cartilage degradation (India Ink uptake, right knee)", "setting": "7.5 mg IL-1ra content, vs citrate buffer control", "value": "much less signs of degradation compared to the control group"},
      {"measurement": "Osteophyte formation in the tibial plateau", "setting": "vs control group", "value": "no signs of osteophyte formation"},
      {"measurement": "Osteophyte formation on the medial condyle", "setting": "vs control group", "value": "less intense"}
    ]}
  ]
}
